This is an account of results in ChEMBL document CHEMBL4265983, “Discovery and biological evaluation of thiobarbituric derivatives as potent p300/CBP inhibitors” (Bioorg Med Chem, 2018).

pIC50: −log10 of the molar value.

The assay concerns the target T1, Histone acetyltransferase KAT8 (Homo sapiens, UniProt Q9H7Z6).
T1 sequence (Q9H7Z6 whole entry): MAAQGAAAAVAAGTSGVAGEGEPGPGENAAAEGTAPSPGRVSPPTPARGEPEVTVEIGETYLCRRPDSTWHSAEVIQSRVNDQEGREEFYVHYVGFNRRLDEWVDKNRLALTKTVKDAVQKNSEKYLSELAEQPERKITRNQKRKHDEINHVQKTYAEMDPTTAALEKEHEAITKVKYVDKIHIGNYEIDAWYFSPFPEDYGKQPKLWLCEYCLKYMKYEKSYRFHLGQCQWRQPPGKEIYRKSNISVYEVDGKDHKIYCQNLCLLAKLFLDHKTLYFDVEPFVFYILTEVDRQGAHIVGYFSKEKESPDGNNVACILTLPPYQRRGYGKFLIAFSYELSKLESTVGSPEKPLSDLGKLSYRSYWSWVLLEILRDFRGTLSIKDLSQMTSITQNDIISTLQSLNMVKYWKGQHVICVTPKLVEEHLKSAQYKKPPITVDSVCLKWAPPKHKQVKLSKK
Put plainly: Inhibition of MOF (unknown origin).

For orientation: pIC50 means the IC50 on a negative log10 scale, so that one unit is a factor of ten. Read a low pIC50 as a high IC50.

In turn, `CCCCCCCCCCCCCCCc1cccc(O)c1C(=O)O` [ANACARDIC ACID] gave a pIC50 of 4.37.
